Reference: ChEMBL document CHEMBL3734722, “Structural Elucidation of a Small Molecule Inhibitor of Protein Disulfide Isomerase” (ACS Med Chem Lett, 2015)
Calls of active or inactive are those of the source. No cut-off for these calls is given here.

The chains behind the UniProt entries cited, without tags or fusion partners. Where a name states a change or a piece, a line headed by the entry shows the natural chain unless it says otherwise.
UniProt P07237: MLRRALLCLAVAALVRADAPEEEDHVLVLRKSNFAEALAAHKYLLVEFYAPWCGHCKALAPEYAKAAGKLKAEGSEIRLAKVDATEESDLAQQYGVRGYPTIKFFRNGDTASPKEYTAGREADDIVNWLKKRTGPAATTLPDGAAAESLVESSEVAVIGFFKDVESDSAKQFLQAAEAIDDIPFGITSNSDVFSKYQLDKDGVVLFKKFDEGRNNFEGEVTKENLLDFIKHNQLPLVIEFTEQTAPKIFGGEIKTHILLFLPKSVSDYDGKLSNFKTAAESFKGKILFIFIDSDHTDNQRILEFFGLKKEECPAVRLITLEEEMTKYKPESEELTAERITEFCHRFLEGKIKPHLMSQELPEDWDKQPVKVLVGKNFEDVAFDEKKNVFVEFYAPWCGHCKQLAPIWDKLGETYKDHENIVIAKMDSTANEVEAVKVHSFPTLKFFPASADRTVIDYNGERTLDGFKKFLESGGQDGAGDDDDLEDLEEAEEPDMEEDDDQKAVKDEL

Target: Protein disulfide-isomerase (Homo sapiens) (UniProt P07237)
Assay: Irreversible binding affinity to PDI catalytic domain a (unknown origin) at 3 mM measured after 100 fold dilution for 2 hrs by intrinsic tryptophan fluorescence assay

SMILES: O=[As]c1ccccc1 (stereo unspecified)
- Activity: Active
